The assay has as its target T1, SV2AWT (Homo sapiens, UniProt Q7L0J3).
T1 construct: expressed in transfected cells; host or cells: HEK293 (ATCC CRL-1573), crude membranes
Description: Competitive displacement of 10 nM 3H-UCB-J, SV2AWT membranes (Fig. 1A). As to conditions: read-out: Binding of 3H-UCB-J (%), SV2A_WT; Log [Levetiracetam] (M) -4.523. As to the method: Ligand binding studies were carried out using crude membranes prepared from HEK293 cells (ATCC, CRL-1573) overexpressing mVenus-SV2AWT or SV2AEM. Membranes were prepared either from transiently transfected cells or from baculovirus-infected cells as described previously. Cells were washed with DPBS (Ca^2+ and Mg^2+ free), followed by resuspending in cold SH buffer (10 mM HEPES-Tris pH 7.4, 320 mM sucrose) containing protease inhibitor cocktail (MedChemExpress) to a density of 10^7 cells/ml. This cell suspension was homogenized by passing through a bead homogenizer (Isobiotec) with 10-micron clearance bead on ice. The lysate was then centrifuged at 4000 × g for 5 min at 4 °C, and the supernatant was aliquoted, frozen in liquid nitrogen, and stored at −80 °C. The mVenus fluorescence estimated using fluorescence size-exclusion chromatography (FSEC) was used to normalize expression levels of mVenus-SV2A mutants studied as detailed previously. For all binding studies, membranes containing […] protein (estimated by BCA method) per reaction were used.
To obtain dose-response curves of studied SV2A ligands, membranes diluted in 0.2 ml binding buffer (50 mM Tris-Cl, pH 7.4, and 2 mM MgCl2) were incubated with indicated concentrations of ligands for 30 min at 4 °C. […] Radioactivity was monitored in MicroBeta2 plate counter (Revvity). […]

Protein sequences, listed by entry. Tags and fused reporters are not part of them.
UniProt Q7L0J3, whole entry: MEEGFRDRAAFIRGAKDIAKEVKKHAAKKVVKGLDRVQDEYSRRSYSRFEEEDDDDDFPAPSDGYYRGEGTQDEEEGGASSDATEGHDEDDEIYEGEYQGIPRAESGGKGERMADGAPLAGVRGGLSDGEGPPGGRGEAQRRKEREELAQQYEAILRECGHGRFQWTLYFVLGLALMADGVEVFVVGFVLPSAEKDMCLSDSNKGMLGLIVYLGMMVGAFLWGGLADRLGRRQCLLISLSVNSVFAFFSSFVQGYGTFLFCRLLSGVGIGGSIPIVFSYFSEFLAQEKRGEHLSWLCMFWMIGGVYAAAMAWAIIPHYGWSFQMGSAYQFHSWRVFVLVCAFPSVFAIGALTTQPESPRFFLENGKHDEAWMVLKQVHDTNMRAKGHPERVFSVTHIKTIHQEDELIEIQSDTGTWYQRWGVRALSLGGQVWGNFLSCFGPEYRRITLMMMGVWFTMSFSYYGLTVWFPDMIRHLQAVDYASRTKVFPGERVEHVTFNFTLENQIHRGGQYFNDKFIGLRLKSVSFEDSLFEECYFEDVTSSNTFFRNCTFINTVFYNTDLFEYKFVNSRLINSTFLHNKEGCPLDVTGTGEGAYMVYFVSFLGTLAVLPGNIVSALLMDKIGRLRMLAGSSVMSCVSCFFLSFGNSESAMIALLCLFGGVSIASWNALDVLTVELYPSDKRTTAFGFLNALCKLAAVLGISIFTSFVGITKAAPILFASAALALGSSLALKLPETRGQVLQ

The source of these data is PMC12663137 (Nature Communications, 2025).

SMILES strings stand for the structures.

`CC[C@@H](C(N)=O)N1CCCC1=O` [levetiracetam]: the remaining activity at 30 µM stood at 42.4%.
